Source: PubChem (National Center for Advancing Translational Sciences (NCATS))
Shown are actives, neighbours in structure and some others; about 16% of the full set was active somewhere.
TDP1 cell CPT – growth inhibition of DT40 Tdp1-/-;hTDP1 cells with camptothecin (screen for TDP1 inhibitors). chicken DT40 Tdp1-/-;hTDP1 cells + 20 nM CPT, ATP luminescence, 48 h. Potency, µM (titrated, usually from 46.2 µM), for the others: at the top dose activity change, negative = growth inhibition, hits mostly inhibitors. 420,000 compounds, 12% hits. AID 686979; note: potency is the fitted concentration of half-maximal effect; % is set by controls: 0 for no effect and ±100 for the full control effect; nearly all actives have a fitted effect of over 55% in size
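Cell growth measured by CellTiter-Glo luminescence after a minimum 48 h, 37 C compound exposure with 20 nM CPT in Tdp1-knockout DT40 cells stably expressing hTDP1, seeded 400/well; qHTS titration format.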
miR-21 FLuc – miR-21 reporter, rising signal; HeLa miR-21 FLuc reporter, luciferase, 48 h; Potency, µM (titrated, usually from 38.3 µM), without a hit: top-dose reporter change, positive = more light; AID 2288; 340,000 tested, under 10 active; active = well fitted rising curve with a large enough effect; inconclusive = small, poorly fitted or top-dose-only effect; inactive = no such curve, though single readings can be large or run the other way;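 further: % of control where 0% means no effect; miR-21 action dims this reporter so a rising signal means less miR-21 action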
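Using DMEM plus 10% FBS, HeLa miR-21-FLuc cells are incubated with test compounds (final up to about 40uM) for 48 hours; firefly luciferase signal is then imaged following reagent-mediated lysis.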
TDP1 block – TDP1 (human) enzyme inhibition | Q9NUW8 | recombinant TDP1, AlphaScreen DNA substrate cleavage | Potency, µM (doses to about 130 µM), for inactives: at the top dose activity change, negative = inhibition, usual class: inhibitors | 350,000 compounds, 0.28% hits; note: potency is the fitted concentration of half-maximal effect; % is set by controls: 0 for no effect and ±100 for the full control effect; nearly all actives have a fitted effect of over 40% in size
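Here, a 5' biotin and 3' phosphotyrosine-FITC DNA oligonucleotide reports Tdp1 activity: intact substrate bridges AlphaScreen beads, while cleavage leaves a 3' phosphate and drops signal. All incubations at room temperature.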
DT40 TDP1 no CPT – qHTS for Inhibitors of human tyrosyl-DNA phosphodiesterase 1 (TDP1): qHTS in cells in absence of CPT; Potency, µM (top dose mostly 46.2 µM), for inactives: at the highest dose activity change, negative = growth inhibition, most hits filed as inhibitors; AID 686978, 2013; DT40 Tdp1-/- hTDP1 cells, no CPT, ATP luminescence, 48 h; 420,000 compounds, 15% hits; note: potency is the fitted concentration of half-maximal effect; % is set by controls: 0 for no effect and ±100 for the full control effect; nearly all actives have a fitted effect of over 55% in size
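Growth of hTDP1-complemented DT40 Tdp1-knockout cells is measured by ATP luminescence after at least 48 hr compound exposure at 37 °C, with DMSO substituting for the 20 nM CPT used in the parallel screen.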
uPA surface inh – blocks generation of uPA at the cell surface; cell surface uPA generation assay, qHTS; Potency, µM (titrated, usually from 38.3 µM), for inactives: at the top dose activity change, negative = inhibition, actives largely listed as inhibitors; 330,000 compounds, 0.31% hits; AID 540303; active = well fitted inhibition curve with a large enough effect; inconclusive = small, poorly fitted or top-dose-only effect; inactive = no such curve, though single readings can be large or run the other way; tested in mouse RAW 264.7 cells; note: potency is the fitted concentration of half-maximal effect; % is set by controls: 0 for no effect and ±100 for the full control effect; nearly all actives have a fitted effect of over 55% in size
Numbers without * were called inactive; u = inconclusive; x = no result given; [ ] = dose if it differs, or a comment. Unless noted, calls come from the whole dose curve; as a rule, active = well fitted curve in the direction sought with a large enough effect; inconclusive = small, poorly fitted or top-dose-only effect, or another doubt; inactive = no such curve, though single readings can be large; an effect the other way counts as inactive or inconclusive.

1	CCOC(=O)c1cnc2ccc(OC)cc2c1Nc1ccc(N2CCN(C)CC2)cc1
2	CCOC(=O)c1cnc2ccc(C(=O)OC)cc2c1Nc1ccc(C(=O)O)cc1
3	CCOC(=O)c1cnc2ccc(OC)cc2c1Nc1ccc2c(c1)OCCO2
4	Cc1oc(-c2ccccc2)cc1C(=O)Nc1cccc2ccccc12
5	CCCC[n+]1c2ccccc2cc2ccccc21
6	CCC[n+]1c2ccccc2cc2ccccc21
7	Cc1cc(Nc2ccccc2)n(-c2ccc(Br)cc2)n1
8	Cc1cc(NC(=O)Nc2cc(C)nn2-c2ccccc2)n(-c2ccccc2)n1

| screen / no. | 1 | 2 | 3 | 4 | 5 | 6 | 7 | 8 |
| --- | --- | --- | --- | --- | --- | --- | --- | --- |
| TDP1 cell CPT | 23µM* | -16% | u | -26% | 2.3µM* | 2.9µM* | 18µM* | -3% |
| miR-21 FLuc | 13% | -6% | 14% | 6% | 25% | u | 13% | -2% |
| TDP1 block | x | 4% | 5% | -6% | x | x | -7% | -4% |
| DT40 TDP1 no CPT | 21µM* | -8% | 18µM* | -18% | 2.1µM* | 2.6µM* | u | -3% |
| uPA surface inh | -2% | -9% | -8% | -6% | 0% | -16% | -5% | 0% |

9	Cc1cc(Nc2nc3ccccc3nc2Cl)n(-c2ccccc2)n1
10	Cc1cc(Nc2nnnn2-c2ccccc2)n(-c2ccccc2)n1
11	COc1cc(/C=N/S(=O)(=O)CCc2ccccc2)ccc1O
12	COc1cc(NC(=O)c2cccc(Cl)c2Cl)ccc1NC(=O)c1cc2ccccc2o1
13	COc1cc(NC(=O)c2cc3ccccc3o2)ccc1NC(=O)c1ccco1
14	CCC(=O)Nc1ccc(NC(=O)c2cc3ccccc3o2)c(OC)c1
15	CCCCCC(=O)Nc1ccc(NC(=O)c2cc3ccccc3o2)c(OC)c1
16	COc1cc(NC(=O)c2c(OC)cccc2OC)ccc1NC(=O)c1cc2ccccc2o1

| screen / no. | 9 | 10 | 11 | 12 | 13 | 14 | 15 | 16 |
| --- | --- | --- | --- | --- | --- | --- | --- | --- |
| TDP1 cell CPT | 18µM* | u | -1% | 5.2µM* | -4% | u | 6.5µM* | 10µM* |
| miR-21 FLuc | 30% | 3% | 1% | -9% | 1% | -48% | -34% | -60% |
| TDP1 block | -3% | 4% | 3% | 0%[2.28 µM] | 3% | x | -9%[12.3 µM] | x |
| DT40 TDP1 no CPT | 16µM* | -16% | -8% | 2.6µM* | -28% | 10µM* | 4.6µM* | u |
| uPA surface inh | x | x | -2% | x | 3% | -11% | x | 16% |

17	Cc1ccc(NC(=O)NCC(c2ccccc2)N(C)C)cc1 (centres undefined)
18	O=C(Nc1ccccc1Br)c1cnn2c1NC(=C1CC1)C=C2C(F)F
19	CCOC(=O)c1ccc(NC(=O)c2cc3ccccc3o2)cc1
20	CCOC(=O)c1cccc(NC(=O)c2cc3ccccc3o2)c1
21	CCCC12CN3CC(C)(CN(C1)C3c1ccc(CC)cc1)C2=O (centres undefined)
22	C=CC[C@@H](CC(=O)N(CCO)Cc1ccccc1)C(=O)N[C@H](COC(=O)[C@H](CC=C)CC(=O)OC(C)(C)C)Cc1c[nH]c2ccccc12
23	C=CC[C@H](CC(=O)N(CCO)Cc1ccccc1)C(=O)N[C@@H](C)COC(=O)[C@H](CC=C)CC(=O)OC(C)(C)C
24	C=CC[C@H](CC(=O)N(CCO)Cc1ccccc1)C(=O)N[C@H](COC(=O)[C@@H](CC=C)CC(=O)OC(C)(C)C)Cc1c[nH]c2ccccc12

| screen / no. | 17 | 18 | 19 | 20 | 21 | 22 | 23 | 24 |
| --- | --- | --- | --- | --- | --- | --- | --- | --- |
| TDP1 cell CPT | 2% | -5% | u | 8.2µM* | u | 23µM* | u | 23µM* |
| miR-21 FLuc | -44% | x | -27% | -14% | 2% | x | x | x |
| TDP1 block | x | x | 2% | x | 2% | 4% | 0% | 4% |
| DT40 TDP1 no CPT | 3% | u | u | u | 4.6µM* | 16µM* | u | 16µM* |
| uPA surface inh | 5% | x | 3% | u | x | -22% | -2% | -15% |

25	CCc1nc(SCC(=O)Nc2nnc(C(C)C)s2)n[nH]1
26	CCOC(=O)N1C2=NC(C(=O)OC)=C(C(=O)OC)[C@@H]3N(C)c4ccc(OC)cc4[C@]23C[C@H]1C(=O)OC
27	FC(F)(F)c1nc2ccccc2c2nc3ccccc3n12
28	FC(F)(F)c1nnc2c(Sc3ccc(Cl)cc3)nc3ccccc3n12
29	FC(F)(F)c1nnc2c(Sc3ccccn3)nc3ccccc3n12
30	CCCN(CCC)S(=O)(=O)c1ccc2c(c1)N(CC(=O)NC(C)c1ccccc1)C(=O)CS2 (centres undefined)
31	CCCCC(CC)CNC(=O)CN1C(=O)CSc2ccc(S(=O)(=O)N3CCOCC3)cc21 (centres undefined)
32	CCOc1ccc(NC(=O)CN2C(=O)CSc3ccc(S(=O)(=O)N4CCOCC4)cc32)cc1

| screen / no. | 25 | 26 | 27 | 28 | 29 | 30 | 31 | 32 |
| --- | --- | --- | --- | --- | --- | --- | --- | --- |
| TDP1 cell CPT | 4% | u | 1% | 2.6µM* | 5.2µM* | u | 16µM* | -7% |
| miR-21 FLuc | x | x | -10% | -2% | -17% | 10% | -2% | 0% |
| TDP1 block | x | -2%[12.3 µM] | 4% | -1% | 6% | 3% | 8% | 7% |
| DT40 TDP1 no CPT | -9% | u | -7% | 1.8µM* | 4.6µM* | 23µM* | 13µM* | 6% |
| uPA surface inh | 5% | u | 4% | -7% | -10% | x | x | 5% |

33	CCCCNC(=O)CN1C(=O)CSc2ccc(S(=O)(=O)N3CCOCC3)cc21
34	CCCCOc1ccc(C(C)NC(=O)CN2C(=O)CSc3ccc(S(=O)(=O)N4CCOCC4)cc32)cc1 (centres undefined)
35	Cc1ccc[n+](CC(=O)c2ccc(Cl)cc2)c1
36	O=S(=O)(c1cccc(-c2cn3cc(Cl)ccc3n2)c1)N1CCOCC1
37	CN(C)c1ccc(/C=C/c2cnnc3ccccc23)cc1
38	Cc1nc2ccccc2nc1/C=C/c1ccc(N(C)C)cc1
39	CN(C)c1ccc(/C=C/c2cc(=O)[nH]c3ccccc23)cc1
40	C(=Cc1cnnc2ccccc12)c1ccccc1

| screen / no. | 33 | 34 | 35 | 36 | 37 | 38 | 39 | 40 |
| --- | --- | --- | --- | --- | --- | --- | --- | --- |
| TDP1 cell CPT | -2% | u | 18% | u | 7.1µM* | 0.5µM* | -30% | u |
| miR-21 FLuc | x | 4% | -3% | -8% | x | x | x | x |
| TDP1 block | x | 8% | x | 0% | x | x | x | x |
| DT40 TDP1 no CPT | -4% | 23µM* | -8% | -30% | 6.3µM* | 0.5µM* | -29% | u |
| uPA surface inh | x | x | -5% | x | x | x | x | -17% |

A draw from above in order of SMILES length, smallest number first.
35	Cc1ccc[n+](CC(=O)c2ccc(Cl)cc2)c1
39	CN(C)c1ccc(/C=C/c2cc(=O)[nH]c3ccccc23)cc1
36	O=S(=O)(c1cccc(-c2cn3cc(Cl)ccc3n2)c1)N1CCOCC1
33	CCCCNC(=O)CN1C(=O)CSc2ccc(S(=O)(=O)N3CCOCC3)cc21

| screen / no. | 35 | 39 | 36 | 33 |
| --- | --- | --- | --- | --- |
| TDP1 cell CPT | 18% | -30% | u | -2% |
| miR-21 FLuc | -3% | x | -8% | x |
| TDP1 block | x | x | 0% | x |
| DT40 TDP1 no CPT | -8% | -29% | -30% | -4% |
| uPA surface inh | -5% | x | x | x |

The list goes on:
41	CN(C)c1ccc(/C=C/c2cc(N(C)C)nc3ccccc23)cc1
42	O=C(Nc1cc(Br)ccc1O)c1cc(-c2cccs2)on1
43	O=C(CSC(=S)N1CCOCC1)Nc1nc(=O)c2ccccc2s1
44	CC(=O)c1ccc(-c2ccc([C@H]3[C@@H]4C=CCC[C@@]4(C)C(=O)N3Cc3ccccc3)c(F)c2)cc1
45	COc1ccc(-c2cc(C3C4C=CCCC4(C)C(=O)N3Cc3ccccc3)ccc2F)cc1 (centres undefined)
46	COc1ccc(-c2cc([C@H]3[C@@H]4C=CCC[C@@]4(C)C(=O)N3Cc3ccccc3)ccc2F)cc1
47	COc1ccc(-c2ccc(N(C)C)cc2)cc1C1C2C=CCCC2(C)C(=O)N1Cc1ccccc1 (centres undefined)
48	COc1ccc(-c2ccc(N(C)C)cc2)cc1[C@H]1[C@@H]2C=CCC[C@@]2(C)C(=O)N1Cc1ccccc1

| screen / no. | 41 | 42 | 43 | 44 | 45 | 46 | 47 | 48 |
| --- | --- | --- | --- | --- | --- | --- | --- | --- |
| TDP1 cell CPT | 1µM* | -12% | x | 21µM* | x | u | x | 29µM* |
| miR-21 FLuc | x | -29% | -21% | u | x | 18% | x | 10% |
| TDP1 block | x | 3% | 6% | 1% | 4% | -1% | 23% | 11% |
| DT40 TDP1 no CPT | 0.89µM* | -15% | x | 16µM* | x | 26µM* | x | 21µM* |
| uPA surface inh | x | -3% | x | u | x | -13% | x | 3% |
